Test results: patent US20140127127

System: L-pyroglutamyl-L-prolyl-L-arginine-p-nitroaniline hydrochloride

Row | Substance | Km
1 | Thrombin (Sigma, T-3399) | thrombin 188mU/mL, Km=106.2 µM
2 | Trypsin (ICN / MP Biomedicals, #103140) | 0.4 nM trypsin, Km=78.6 µM
